Antibody variant affinities, Ab-95 light chain, assay 2

Reference: Engelhart et al. 2022, doi:10.1038/s41597-022-01779-4. File: FLAb, binding data.

All variants were tested on one target, the spike HR2 peptide PDVDLGDISGINAS (SARS-CoV-2).

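The starting antibody came from a phage panning campaign against this peptide. In library AAYL52, one, two or three CDR residues were substituted; doubles and triples were drawn at random. The assay is AlphaSeq: two haploid yeast populations carry antibody and antigen on their surface. Binding brings cells together so that they mate, and sequencing counts the barcode pairs among the diploids. Each replicate has its own calibration line, from reference interactions of the BCL2 family. The assay was run in three technical replicates.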

Each scFv is VH, three GGGGS repeats, VL, as in the parent Ab-95, and differs from it in the CDRs of the light chain only.
VH: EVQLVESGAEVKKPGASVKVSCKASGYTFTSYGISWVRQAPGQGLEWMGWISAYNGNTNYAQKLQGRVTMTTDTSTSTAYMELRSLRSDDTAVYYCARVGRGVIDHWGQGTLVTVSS
VL: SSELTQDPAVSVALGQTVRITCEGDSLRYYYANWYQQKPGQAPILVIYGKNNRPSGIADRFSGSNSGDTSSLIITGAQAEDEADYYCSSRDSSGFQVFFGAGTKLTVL

Each variant is given by its three light chain CDRs, as the data file delimits them; those of the parent are EGDSLRYYYAN, GKNNRPS, SSRDSSGFQVF.
Every variant below is changed at G49 of the VL (sequential numbering).
Values are log10 of the apparent Kd in nM; lower means stronger binding.
A mean of the replicates is given; it leaves out those without a signal.
A pair that was not seen in that replicate is written "ND"; this usually means weak binding, but a binder can also be missed.
Three control strains display no target. For library AAYL52, 28% of the pairings with them gave a signal, with a median of 3.91 and one signal in twenty below 2.90, so weak values seen in few replicates may be background. Also given: how often the same scFv was detected with the empty control strains, with their mean in brackets.
In this assay the parent's reference entry averaged 2.31; its copy inside this library read 2.25.

CDR-L1	CDR-L2	CDR-L3	log10 Kd, replicates	mean, log10 nM	control signals
EGDSLRYKYMN	CKNNRPS	SSRDSSGFQVF	3.02 3.01 3.46	3.16	1 of 9 (4.53)
EGDSLRYYYPN	SKNNRNS	SSRDSSGFQVF	3.50 2.78 2.62	2.97	2 of 9 (3.14)
EGDSCRYYYAN	KKNNRPS	SSRDSSGFQVF	ND ND ND	ND	3 of 9 (3.54)
EGDSLNYYYAN	RKNNRPS	SSRDSSGFQVQ	ND ND ND	ND	1 of 9 (2.81)
EGDSLRYYYAN	RKNNRPS	DSRDSSHFQVF	4.04 5.23 ND	4.64	1 of 9 (3.70)
EGDSLRYYYAN	MKNNRPF	SSRDSFGFQVF	3.37 2.79 ND	3.08	3 of 9 (3.43)
EGTSLRYYYAN	VKNNRPS	SSRDSSGFWVF	ND 3.94 3.51	3.73	1 of 9 (3.64)
EGDSLRYYYEN	IKNNRPS	SSRDDSGFQVF	ND ND ND	ND	3 of 9 (3.72)
EGDSLRYYYAN	MTNNRWS	SSRDSSGFQVF	4.91 5.17 ND	5.04	2 of 9 (3.31)
EGDSLRYYYAN	NKNNRPS	SSRDSSPFNVF	ND 4.75 ND	4.75	3 of 9 (3.89)
EGGSLRYYYAN	FKNNRPS	SSRDSSGFPVF	4.31 ND ND	4.31	2 of 9 (3.65)
EGDSLRYYYAN	KKNLRPS	SSRDSSGFQVS	5.45 3.59 4.29	4.44	4 of 9 (4.30)
EGDSLRYYLAN	WKNNRPS	SSRDSSGGQVF	ND ND ND	ND	3 of 9 (3.58)
SGDSLRYYYAN	TTNNRPS	SSRDSSGFQVF	2.87 3.96 2.78	3.20	4 of 9 (3.26)
EGDSLRYYYAN	PKNNRPD	SSRDSSGFQEF	3.70 3.91 ND	3.80	1 of 9 (4.49)
PGDSLRYYYAN	SKNNRPS	SSRDSFGFQVF	3.53 3.28 3.84	3.55	2 of 9 (4.59)
EGDSLRYYYAN	SKNNRPS	SSTDSSGFTVF	5.08 3.82 4.63	4.51	5 of 9 (4.46)
ETDSLRYYYAN	WKNNYPS	SSRDSSGFQVF	3.48 ND 4.40	3.94	4 of 9 (4.69)
EGDSLRYYYAN	VKNNRPS	SSRDSSGFQVF	4.98 4.49 ND	4.73	2 of 9 (3.86)
EGDSLRYYYAN	QKNNRPS	SSRQSSGFQVR	5.05 ND ND	5.05	2 of 9 (3.25)
EYDSLRYYYAN	YKNNRPS	SQRDSSGFQVF	5.20 3.92 2.81	3.98	3 of 9 (3.58)
EGDSLRYYYAN	DKNNRPS	GGRDSSGFQVF	3.14 2.70 2.53	2.79	2 of 9 (4.92)
EGDSLRYYYAN	LMNNRPS	SSRDSSGFQMF	5.57 ND 3.91	4.74	5 of 9 (4.17)
EGDSLRYYYAN	LKGNRPS	HSRDSSGFQVF	4.20 ND ND	4.20	4 of 9 (3.31)
GGDSLRYYYAN	CKNNRPS	SSRDSSGVQVF	ND ND 4.30	4.30	2 of 9 (4.78)
EGDILRYYYAN	AKANRPS	SSRDSSGFQVF	ND ND 4.19	4.19	1 of 9 (3.58)
EGDSLRYYYAN	WKQNRPS	SSRDSSGFAVF	ND ND ND	ND	6 of 9 (3.80)
EGDSLRYYYAN	QKNNRPS	SSRDSSGFQVF	3.75 4.68 3.38	3.94	5 of 9 (4.38)
EGDSLRYYYAN	SLNNRPS	YSRDSSGFQVF	ND ND 2.19	2.19	1 of 9 (3.23)
EGDSLRYYYAN	IKNNRHS	SSRDSVGFQVF	ND ND ND	ND	1 of 9 (3.40)
EGDSLRYYYAN	MKNNRPS	SSRGSSHFQVF	3.28 2.80 ND	3.04	3 of 9 (3.49)
EGDSLRYYYAN	IKNNRPC	SSRDSSGFQVF	ND 5.77 ND	5.77	4 of 9 (3.89)
EGDSLRYYDAN	HKNNSPS	SSRDSSGFQVF	3.43 3.89 3.00	3.44	5 of 9 (4.31)
EGDSLRYYYAN	RKNNRPP	SSLDSSGFQVF	4.86 4.25 ND	4.56	4 of 9 (4.18)
EGDYLRYYYAN	MKNNLPS	SSRDSSGFQVF	3.93 3.72 ND	3.83	3 of 9 (3.81)
EGDSLRYYYAN	CKNNKPS	SSRDSSDFQVF	3.84 4.22 ND	4.03	2 of 9 (3.85)
EGDSLRYYYAN	PKPNRPS	SSRDSSNFQVF	4.60 ND 4.04	4.32	1 of 9 (5.73)
EGYSLRYYYFN	FKNNRPS	SSRDSSGFQVF	ND ND ND	ND	1 of 9 (3.77)
EDDSQRYYYAN	PKNNRPS	SSRDSSGFQVF	ND ND ND	ND	0 of 9
EGDSLRVYYAN	AKINRPS	SSRDSSGFQVF	4.54 4.46 ND	4.50	3 of 9 (4.40)
EGDSLRYYYAN	IKNNRPY	SSRDSSGFQVF	3.43 ND ND	3.43	3 of 9 (3.81)
EGDSLRYYYAD	AKNNLPS	SSRDSSGFQVF	4.17 ND ND	4.17	3 of 9 (3.83)
EGSSLRYYYAN	IKNNRPS	SSRDLSGFQVF	ND ND ND	ND	5 of 9 (3.28)
EGDSLRYYYAN	EKNNRDS	SSRDSSGFQVF	ND 3.18 3.13	3.16	2 of 9 (3.79)
EGDSLRYYYAN	TKNNRPS	SSRDSSGFQVH	ND 3.48 3.62	3.55	1 of 9 (3.90)
EGDSLREYYAN	YKNNRPS	SSRDSSGTQVF	ND ND 4.03	4.03	3 of 9 (3.19)
EGDCLRYYYAN	CKNNRPS	SSRDSSGFQVF	ND 4.24 4.28	4.26	3 of 9 (3.31)
EMDSTRYYYAN	VKNNRPS	SSRDSSGFQVF	ND ND 4.10	4.10	3 of 9 (4.14)
EPDSLRYYYAN	FKNNRPS	SSRDSSGNQVF	ND 3.36 ND	3.36	7 of 9 (4.08)
EGDSLRYFYAN	EKNNRPS	SSRDSSGFQVF	ND ND 3.46	3.46	2 of 9 (3.86)
EGDSLRYYYAN	AKNNRPS	SSTDSSGFQVF	ND ND ND	ND	2 of 9 (3.34)
EHLSLRYYYAN	YKNNRPS	SSRDSSGFQVF	ND ND ND	ND	2 of 9 (4.25)

For reference, 3 entries of the list once more:

| CDR-L1 | CDR-L2 | CDR-L3 | log10 Kd, replicates | mean, log10 nM | control signals |
|---|---|---|---|---|---|
| EGDSLRYYLAN | WKNNRPS | SSRDSSGGQVF | ND ND ND | ND | 3 of 9 (3.58) |
| EPDSLRYYYAN | FKNNRPS | SSRDSSGNQVF | ND 3.36 ND | 3.36 | 7 of 9 (4.08) |
| EGDSLRYYYAD | AKNNLPS | SSRDSSGFQVF | 4.17 ND ND | 4.17 | 3 of 9 (3.83) |